Data as given in ChEMBL document CHEMBL4419164, “Methods and compositions for inhibiting cnksr1” (2018).

Assays:
Homo sapiens [1] = species on record: Homo sapiens; test: Selectivity index, ratio of binding affinity to AKT PH-domain (unknown origin) by SPR spectroscopy to binding affinity to CNKSR1 PH-domain (unknown origin) by SPR spectroscopy
Homo sapiens [2] = species on record: Homo sapiens; test: Selectivity index, ratio of binding affinity to PDPK1 PH-domain (unknown origin) by SPR spectroscopy to binding affinity to CNKSR1 PH-domain (unknown origin) by SPR spectroscopy
Homo sapiens [3] = species on record: Homo sapiens; test: Selectivity index, ratio of binding affinity to TIAM1 PH-domain (unknown origin) by SPR spectroscopy to binding affinity to CNKSR1 PH-domain (unknown origin) by SPR spectroscopy

Measured: Ratio

CCOC(=O)Cc1nn(Cc2nc(-c3ccc(C)cc3)cs2)c(=O)c2ccccc12
50 to 100: all assays above
